Assays:
PLK4 [1] = target: T1, PLK4 (Homo sapiens, UniProt O00444); conditions: 10 μM, MDA-MB-231 lysates, 40 to 55 ℃
PLK4 [2] = target: T1, PLK4; assay: biochemical
Experimental: The lysates were centrifuged and filtered to remove cell debris. […] The kinase concentration in the eluates was measured by qPCR.

By UniProt entry, the sequences of proteins in these tests, tags left out. Where a name states a change or a piece, a line headed by the entry shows the natural chain unless it says otherwise.
UniProt O00444: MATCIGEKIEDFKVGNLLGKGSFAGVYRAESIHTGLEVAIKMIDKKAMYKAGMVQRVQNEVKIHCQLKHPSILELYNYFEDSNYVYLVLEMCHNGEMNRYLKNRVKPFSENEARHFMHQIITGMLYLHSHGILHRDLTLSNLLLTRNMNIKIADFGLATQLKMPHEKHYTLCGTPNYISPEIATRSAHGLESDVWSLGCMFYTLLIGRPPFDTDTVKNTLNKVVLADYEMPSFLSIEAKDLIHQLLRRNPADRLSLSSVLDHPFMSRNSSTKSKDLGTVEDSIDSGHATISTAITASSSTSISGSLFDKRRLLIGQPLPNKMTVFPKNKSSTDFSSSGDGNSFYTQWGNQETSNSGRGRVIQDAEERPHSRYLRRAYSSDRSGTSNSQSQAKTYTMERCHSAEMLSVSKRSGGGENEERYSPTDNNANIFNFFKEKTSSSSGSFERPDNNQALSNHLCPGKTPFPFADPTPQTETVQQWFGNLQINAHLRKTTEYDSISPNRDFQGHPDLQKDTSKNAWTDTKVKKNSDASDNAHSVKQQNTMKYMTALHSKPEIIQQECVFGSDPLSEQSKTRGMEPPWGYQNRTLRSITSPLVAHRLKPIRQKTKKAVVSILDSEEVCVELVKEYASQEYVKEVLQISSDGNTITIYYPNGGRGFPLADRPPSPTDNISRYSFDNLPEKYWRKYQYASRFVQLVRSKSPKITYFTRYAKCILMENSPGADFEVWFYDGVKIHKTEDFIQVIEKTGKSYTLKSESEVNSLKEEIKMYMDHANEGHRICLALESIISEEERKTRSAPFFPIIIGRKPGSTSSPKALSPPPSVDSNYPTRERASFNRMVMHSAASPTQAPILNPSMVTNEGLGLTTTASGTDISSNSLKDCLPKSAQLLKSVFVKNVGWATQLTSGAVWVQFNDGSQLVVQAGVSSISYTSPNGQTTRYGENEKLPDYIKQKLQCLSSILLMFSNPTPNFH

Question: For CC(=O)Nc1nccc(-c2ccc3c(/C=C/c4ccc(CN(C)C)cc4)n[nH]c3c2)n1 [YLT-11, (E)-N-(4-(3-(4-((dimethylamino)methyl)styryl)-1H-indazol-6-yl)pyrimidin-2-yl)acetamide], which “thermal stability of PLK4” value (PLK4 [1]) is on record?
Answer: The value was “increased the thermal stability of PLK4”.

Question: And the Kd (PLK4 [2])?
Answer: Its Kd is 5.2 nM.
